Legend:
[1] = tested on: rat Cyp11B enzyme (rat adrenal mitochondria); experiment: CYP11B enzymatic assay (% inhibition at 100 nM) (Biological Example 9); details: 100 nM compound, cortisol by ELISA
[2] = Rat liver microsome stability assay (Biological Example 8a); details: rat liver microsomes, 1 μM compound, NADPH
[3] = Human liver microsome stability assay (Biological Example 8b); details: human liver microsomes, 1 μM compound, NADPH
[4] = target: CYP17 (human testicular microsome) (Homo sapiens, UniProt P05093); experiment: CYP17 enzymatic assay (% inhibition at 10 nM), version 1 (Biological Example 5); format: biochemical; details: 10 nM compound, DHEA by ELISA
[5] = target: Cyp21 enzyme (Human HEK 293-Cyp21 stable transfected cells) (Homo sapiens, UniProt P08686); experiment: CYP21-HEK293 enzymatic assay (% inhibition at 100 nM) (Biological Example 10); details: 100 nM compound, HEK 293-Cyp21 cells

Amino acid sequences for entries named in this document (tags omitted).
UniProt P05093, whole entry: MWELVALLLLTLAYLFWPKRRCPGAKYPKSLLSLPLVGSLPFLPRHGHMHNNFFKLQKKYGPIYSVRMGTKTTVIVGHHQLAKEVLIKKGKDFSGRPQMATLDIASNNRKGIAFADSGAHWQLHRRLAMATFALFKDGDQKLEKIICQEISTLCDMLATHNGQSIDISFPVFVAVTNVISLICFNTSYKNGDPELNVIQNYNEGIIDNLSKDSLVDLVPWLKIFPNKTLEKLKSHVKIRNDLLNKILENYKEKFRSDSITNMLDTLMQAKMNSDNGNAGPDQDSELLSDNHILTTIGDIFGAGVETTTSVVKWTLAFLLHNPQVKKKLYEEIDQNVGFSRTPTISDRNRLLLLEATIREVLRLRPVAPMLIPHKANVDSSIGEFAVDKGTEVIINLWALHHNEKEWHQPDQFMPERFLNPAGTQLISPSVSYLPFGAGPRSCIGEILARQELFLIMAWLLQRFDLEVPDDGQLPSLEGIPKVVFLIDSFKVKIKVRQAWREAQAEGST
UniProt P08686, whole entry: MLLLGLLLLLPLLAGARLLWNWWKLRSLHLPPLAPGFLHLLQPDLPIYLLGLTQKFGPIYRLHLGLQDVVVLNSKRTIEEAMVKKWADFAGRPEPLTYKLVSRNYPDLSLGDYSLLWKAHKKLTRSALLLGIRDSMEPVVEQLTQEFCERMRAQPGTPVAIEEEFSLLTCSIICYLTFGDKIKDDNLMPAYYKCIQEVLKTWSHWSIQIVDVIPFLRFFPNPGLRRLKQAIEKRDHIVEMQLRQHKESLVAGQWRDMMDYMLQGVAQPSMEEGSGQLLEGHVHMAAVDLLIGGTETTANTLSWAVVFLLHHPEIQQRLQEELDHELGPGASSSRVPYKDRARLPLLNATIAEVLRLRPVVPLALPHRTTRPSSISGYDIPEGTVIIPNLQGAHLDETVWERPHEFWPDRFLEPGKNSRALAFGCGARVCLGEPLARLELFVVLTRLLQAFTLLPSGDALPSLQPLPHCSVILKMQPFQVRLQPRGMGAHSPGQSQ

## C[C@]12CC[C@H]3[C@@H](CCC4=CC(=O)CC[C@@]43C)C1=CC=C2c1cccnc1
[1]
  Biological Example No. 9: CYP11B percent inhibition at 100 nM: na (“na” means the compound was not active under the conditions tested)
[2]
  Biological Example No. 8a: rat liver microsome half life: J (J means the compound had a half life of greater than or equal to 1 minute but less than 10 minutes)
[3]
  Biological Example No. 8b: human liver microsome half life: R (R means the compound had a half life of greater than or equal to 1 minute but less than 50 minutes)
[4]
  Biological Example No. 5: CYP17 percent inhibition at 10 nM (version 1): C (C means the compound had a percent inhibition of greater than or equal to 80% when tested at 10 nM)
[5]
  Biological Example No. 10: CYP21-HEK293 percent inhibition at 100 nM: W (W means the compound had a percent inhibition of greater than or equal to 30%)

From patent US20130252930A1 (BIOMARIN PHARMACEUTICAL INC., priority 2010, published 2013)
